What is called Ki is a measure of affinity in units of concentration, obtained from inhibition or displacement. High values mean weaker binding, low ones tighter binding.

Protein sequences, listed by entry. Tags and fused reporters are not part of them. Lines headed by an entry give the natural chain unless they say otherwise; changes in a name come on top.
UniProt P97266, whole entry, looked up: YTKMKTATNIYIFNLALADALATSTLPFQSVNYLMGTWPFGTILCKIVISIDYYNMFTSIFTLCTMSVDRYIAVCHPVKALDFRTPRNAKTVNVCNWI
UniProt P41144: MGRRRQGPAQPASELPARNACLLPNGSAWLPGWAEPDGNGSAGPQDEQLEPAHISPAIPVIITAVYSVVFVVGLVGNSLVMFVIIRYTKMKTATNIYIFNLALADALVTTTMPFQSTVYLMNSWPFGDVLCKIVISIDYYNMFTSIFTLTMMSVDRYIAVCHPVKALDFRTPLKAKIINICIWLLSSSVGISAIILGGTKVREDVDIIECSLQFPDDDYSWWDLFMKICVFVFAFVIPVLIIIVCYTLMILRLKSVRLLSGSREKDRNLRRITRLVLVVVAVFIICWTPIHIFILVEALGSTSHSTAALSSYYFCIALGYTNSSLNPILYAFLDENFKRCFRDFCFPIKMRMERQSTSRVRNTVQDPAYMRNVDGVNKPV

For seven compounds, Ki results are on record in ChEMBL document CHEMBL1126080, “Selective reversible and irreversible ligands for the kappa opioid receptor” (1992).

Assay [1] addresses Mu-type opioid receptor (Cavia porcellus, UniProt P97266). Kind of assay: Binding affinity against opioid receptor mu from guinea pig brain membranes using [3H]naloxone as radioligand.
For assay [2], the target named is Kappa-type opioid receptor (Cavia porcellus, UniProt P41144). Kind of assay: Binding affinity against opioid receptor kappa from guinea pig brain membranes using [3H]ethylketocyclazocine as radioligand.

As to `CN(C(=O)Cc1ccc(Cl)c(Cl)c1)C1CCC2(CCCO2)CC1N1CCCC1` (centres undefined), the inhibitory constant (Ki) was 252 nM in assay [1] and 8.6 nM in assay [2].
On the same counts, the results for `C=C1C[C@]2(CC[C@H](N3CCCC3)[C@@H](N(C)C(=O)Cc3ccc(Cl)c(Cl)c3)C2)OC1=O` are 3150 nM and 109 nM.
On the same counts, the results for `CN(C(=O)Cc1ccc(Cl)c(Cl)c1)C1CCCCC1N1CCCC1` (centres undefined) are 825 nM and 15 nM.
On the same counts, the results for `CN(C(=O)Cc1ccc(Cl)c(Cl)c1)[C@H]1CC2(CC[C@@H]1N1CCCC1)OCCO2` are 5210 nM and 94 nM.
In the case of `CN(C(=O)Cc1ccc(Cl)c(Cl)c1)[C@H]1CCC2(C[C@@H]1N1CCCC1)OCCO2`, the Ki in assay [1] amounted to 702 nM; in assay [2], 1.5 nM.
On the same counts, the results for `C=C1C[C@@]2(CC[C@H](N3CCCC3)[C@@H](N(C)C(=O)Cc3ccc(Cl)c(Cl)c3)C2)OC1=O` are 2610 nM and 1100 nM.
On the same counts, the results for `CN(C(=O)Cc1ccc(Cl)c(Cl)c1)[C@H]1CC(=O)CC[C@@H]1N1CCCC1` are 13000 nM and 78 nM.
